Most compounds without a hit are left out; they make up all but 16% or so of the library.
DT40 TDP1 CPT: growth inhibition of DT40 Tdp1-/-;hTDP1 cells with camptothecin (screen for TDP1 inhibitors) | chicken DT40 Tdp1-/-;hTDP1 cells + 20 nM CPT, ATP luminescence, 48 h | 420,000 tested, 12% active | Potency, µM (titrated, usually from 46.2 µM), for inactives: at the top dose activity change, negative = growth inhibition, usual class: inhibitors | AID 686979; note: potency is the fitted concentration of half-maximal effect; % is set by controls: 0 for no effect and ±100 for the full control effect; nearly all actives have a fitted effect of over 55% in size
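Chicken DT40 Tdp1-/- cells complemented with human TDP1, 400 cells/well, exposed to compounds plus 20 nM camptothecin for at least 48 h at 37 C; viability read as ATP content by CellTiter-Glo luminescence.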
uPA generation: inhibitors of cell surface uPA generation; cell surface uPA generation assay, qHTS; Potency, µM (top dose mostly 38.3 µM), for the others: at the highest dose activity change, negative = inhibition, usual class: inhibitors; 330,000 tested, 0.31% active; AID 540303; active = well fitted inhibition curve with a large enough effect; inconclusive = small, poorly fitted or top-dose-only effect; inactive = no such curve, though single readings can be large or run the other way; tested in mouse RAW 264.7 cells; note: potency is the fitted concentration of half-maximal effect; % is set by controls: 0 for no effect and ±100 for the full control effect; nearly all actives have a fitted effect of over 55% in size
miR-21 reporter: raises the signal of a miR-21 reporter; 340,000 tested, under 10 active; HeLa miR-21 FLuc reporter, luciferase, 48 h; Potency, µM (series often up to 38.3 µM), for inactives: at the highest dose reporter change, positive = more light; active = well fitted rising curve with a large enough effect; inconclusive = small, poorly fitted or top-dose-only effect; inactive = no such curve, though single readings can be large or run the other way;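 further: % of control where 0% means no effect; miR-21 action dims this reporter so a rising signal means less miR-21 action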
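HeLa miR-21-FLuc reporter line, endogenous miR-21; 2000 cells/well in DMEM/10% FBS; compound titration up to ~40uM final, 48 h, 37 degree Celsius; luciferase detection reagent, 15 min lysis, CCD luminescence.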
DT40 TDP1 no CPT: qHTS for Inhibitors of human tyrosyl-DNA phosphodiesterase 1 (TDP1): qHTS in cells in absence of CPT. DT40 Tdp1-/- hTDP1 cells, no CPT, ATP luminescence, 48 h. Potency, µM (series often up to 46.2 µM), without a hit: at the highest dose activity change, negative = growth inhibition, hits mostly inhibitors. 420,000 tested, 15% active. AID 686978, 2013; note: potency is the fitted concentration of half-maximal effect; % is set by controls: 0 for no effect and ±100 for the full control effect; nearly all actives have a fitted effect of over 55% in size
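Camptothecin absent (DMSO only). Human TDP1-complemented DT40 knockout cells, 400 cells/well, 37 °C for minimum 48 hr; ATP measured via CellTiter-Glo, 30 min dark incubation, luminescence.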
TDP1 inh: blocks human tyrosyl-DNA phosphodiesterase 1; Q9NUW8; recombinant TDP1, AlphaScreen DNA substrate cleavage; Potency, µM (series often up to 130 µM), for inactives: at the highest dose activity change, negative = inhibition, actives largely listed as inhibitors; 350,000 tested, 0.28% active; AID 485290; note: potency is the fitted concentration of half-maximal effect; % is set by controls: 0 for no effect and ±100 for the full control effect; nearly all actives have a fitted effect of over 40% in size
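Recombinant human Tdp1 (E. coli-expressed, 1 nM final) preincubated with compounds 15 min at room temperature, then 5'-biotin/3'-phosphotyrosine-FITC DNA substrate (15 nM final) added for 5 min. AlphaScreen beads (10 ug/ml final) added 10 min; cleavage lowers signal.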
The depositor's hits bear a star; ? = inconclusive; nt = no result given; [ ] = another dose, or the depositor's remark. Unless noted, calls come from the whole dose curve; as a rule, active = well fitted curve in the direction sought with a large enough effect; inconclusive = small, poorly fitted or top-dose-only effect, or another doubt; inactive = no such curve, though single readings can be large; an effect the other way counts as inactive or inconclusive.

mol | DT40 TDP1 CPT | DT40 TDP1 no CPT | uPA generation | TDP1 inh | miR-21 reporter
CNC(=O)c1ccsc1NC(=O)C1CCN(S(=O)(=O)c2cccs2)CC1 | -23% | ? | 0% | -5% | nt
Cc1cc2c(cc1S(=O)(=O)CCC(=O)N1CCN(c3ccccc3)CC1)OCC(=O)N2 | nt | nt | nt | 1% | -13%
CC1CC(C)(C)NC(=S)N1CCC(=O)Nc1ccc2c(c1)OCCO2 (stereo unspecified) | ? | ? | -9% | -13% | -1%
O=C(COC(=O)CCSc1ccccc1Cl)Nc1ccc(F)cc1F | -24% | 0% | 4% | 0% | -5%
Cc1ccc(NC(=O)Cc2ccc3c(c2)CCCC3)cc1C | -30% | -20% | 10% | -2% | -21%
COC(=O)C1(Cc2ccc3c(c2)CCC3)Cc2ccc3c(c2C1=O)CCC3 (stereo unspecified) | 21µM* | ? | -9% | nt | nt
Cc1cc2nc(CCN(C(=S)NCC(C)C)C3CCCC3)[nH]c2cc1C | ? | 23µM* | ? | 3% | 23%
N=C(N)SCCc1cccc(CCSC(=N)N)c1 | 16µM* | 16µM* | -13% | 11%[56.1 µM] | nt
CCOC(=O)C1(CC)Oc2ccccc2C(c2ccc(OC)cc2)=C1C(=O)OC (stereo unspecified) | ? | 18µM* | 5% | -11%[56.1 µM] | nt
COc1ccc2[nH]c3c(NCCCOC(C)C)ncnc3c2c1 | ? | ? | -3% | nt | -33%
CCCCOc1ncnc2c1[nH]c1ccc(C)cc12 | ? | 21µM* | -7% | -4% | -27%
CCCOc1ncnc2c1[nH]c1ccccc12 | 23µM* | 21µM* | nt | 6% | -9%
CCN(CC)c1ncnc2c1[nH]c1ccccc12 | 18µM* | 23µM* | -8% | 6% | 12%
CCCOc1ncnc2c1[nH]c1ccc(OC)cc12 | 6.5µM* | 8.2µM* | 4.5µM* | 2% | -43%
Cc1ccc2[nH]c3c(N4CCCCCC4)ncnc3c2c1 | nt | nt | nt | 3% | 13%
CCN(CC)C(=O)C1CCCN(Cc2sccc2C)C1 (stereo unspecified) | -2% | 0% | -2% | -2% | -3%
O=C(NCc1ccccc1Cl)C1CCC(CNS(=O)(=O)c2ccc(Br)s2)CC1 (stereo unspecified) | ? | ? | nt | 0% | -1%
O=C(NCCN1CCCCC1)Nc1ccc(Cl)cc1 | 29% | -2% | 0% | nt | -1%
C=CCn1c(=NC(=O)CC)n(C)c2ccccc21 | ? | 0% | 3% | 1% | 2%
COCCNc1ncnc2c1[nH]c1ccccc12 | ? | 12µM* | -1% | 4% | 7%
COCCCNc1ncnc2c1[nH]c1ccccc12 | nt | nt | nt | 7% | -12%
O=C(NCCC1=CCCCC1)C1CCCN(S(=O)(=O)c2cnc[nH]2)C1 (stereo unspecified) | 3% | -2% | 1% | -1% | -4%
O=C(NCCC1=CCCCC1)C1CCN(S(=O)(=O)N2CCCC2)CC1 | ? | ? | 7% | 1% | -4%
O=C(NCCC1=CCCCC1)C1CCCN(S(=O)(=O)c2ccc(F)cc2)C1 (stereo unspecified) | 12µM* | 21µM* | 2% | 3% | -7%
O=C(NCCC1=CCCCC1)C1CCN(S(=O)(=O)c2ccc(Br)s2)CC1 | 21µM* | 21µM* | 2% | -3% | 1%
C#CCn1c(=NC(=O)c2ccc(Br)s2)sc2cc(NC(C)=O)ccc21 | 10% | 1% | 1% | 3% | -3%
C#CCn1c(=NC(=O)c2ccc(Br)s2)sc2cccc(OC)c21 | ? | 21µM* | ? | 0% | -29%
C=CCn1c(=NC(=O)c2cccs2)sc2cccc(OC)c21 | ? | 16µM* | 0% | nt | -7%
CCn1c(=NC(=O)c2ccc(S(=O)(=O)N(C)C)cc2)sc2cccc(OC)c21 | -2% | -15% | -23% | 2% | 3%
Oc1ccc(C[C@@H]2CNCCN2CCC23CC4CC(CC(C4)C2)C3)cc1 | 16µM* | 13µM* | ? | nt | nt

Brought forward from above: 7 entries; new compounds follow.
mol | DT40 TDP1 CPT | DT40 TDP1 no CPT | uPA generation | TDP1 inh | miR-21 reporter
O=C(NCCC1=CCCCC1)C1CCCN(S(=O)(=O)c2ccc(F)cc2)C1 (stereo unspecified) | 12µM* | 21µM* | 2% | 3% | -7%
O=C(NCCC1=CCCCC1)C1CCN(S(=O)(=O)c2ccc(Br)s2)CC1 | 21µM* | 21µM* | 2% | -3% | 1%
C#CCn1c(=NC(=O)c2ccc(Br)s2)sc2cc(NC(C)=O)ccc21 | 10% | 1% | 1% | 3% | -3%
C#CCn1c(=NC(=O)c2ccc(Br)s2)sc2cccc(OC)c21 | ? | 21µM* | ? | 0% | -29%
C=CCn1c(=NC(=O)c2cccs2)sc2cccc(OC)c21 | ? | 16µM* | 0% | nt | -7%
CCn1c(=NC(=O)c2ccc(S(=O)(=O)N(C)C)cc2)sc2cccc(OC)c21 | -2% | -15% | -23% | 2% | 3%
Oc1ccc(C[C@@H]2CNCCN2CCC23CC4CC(CC(C4)C2)C3)cc1 | 16µM* | 13µM* | ? | nt | nt
CCCCN1CCNC[C@H]1Cc1ccc(O)cc1 | -19% | -12% | -1% | nt | nt
Oc1ccc(C[C@H]2CNCCN2CCC23CC4CC(CC(C4)C2)C3)cc1 | 18µM* | 16µM* | -23% | -7% | nt
Cc1ccc(CNC(=O)c2sc3ccc(S(=O)(=O)N4CCCCC4)cc3c2N)cc1 | nt | nt | nt | 3% | 0%
S=C1SCN(Cc2cccnc2)CN1Cc1cccnc1 | 0.82µM* | 0.82µM* | -3% | -8% | ?
S=C1SCN(CCc2ccccc2)CN1CCc1ccccc1 | ? | 18µM* | nt | nt | nt
COc1ccc(CN2CSC(=S)N(Cc3ccccc3)C2)cc1 | ? | ? | ? | -1% | 7%
S=C1NCN(Cc2cccnc2)CN1 | 11% | 14% | 6% | 3% | 0%
COc1ccc(CN2CSC(=S)N(Cc3ccc(OC)cc3)C2)cc1 | 4.6µM* | 15µM* | ? | 0% | 4%
S=C1SCCN1Cc1ccccc1 | 22% | 1% | 3% | nt | nt
S=C1SCN(Cc2ccccc2)CN1Cc1ccccc1 | 8.4µM* | ? | -1% | 0% | 9%
CCCCC(=O)NC1CC(=O)N(c2ccc3c(c2)OCCO3)C1 (stereo unspecified) | -17% | -25% | nt | 5% | -7%
COc1ccc(-c2cc3nc(NCCN4CCCC4)n(C)c(=O)c3s2)cc1OC | ? | 18µM* | nt | nt | nt
Cn1c(NCCN2CCCC2)nc2cc(-c3ccsc3)sc2c1=O | 21µM* | 15µM* | nt | nt | nt
COCCNc1nc2cc(-c3ccsc3)sc2c(=O)n1C | ? | -40% | nt | nt | nt
Cn1c(NCCc2ccncc2)nc2cc(-c3ccsc3)sc2c1=O | 21µM* | 13µM* | nt | nt | nt
CC(=O)NCCNc1nc2cc(-c3ccsc3)sc2c(=O)n1C | -22% | -13% | nt | nt | nt
COc1cccc(CNc2nc3cc(-c4ccc(OC)c(OC)c4)sc3c(=O)n2C)c1 | -7% | -16% | nt | nt | nt
Cc1ccc(-c2cc3nc(NCCc4ccncc4)n(C)c(=O)c3s2)cc1 | 23µM* | ? | nt | nt | nt
CCc1ccc(-n2c(O)c(C=NCCN(CC)CC)c(=O)[nH]c2=O)cc1 | -17% | -27% | 9% | 3% | 1%
C=C(C)C1(O)OC(=O)C=C1OC (stereo unspecified) | 5.2µM* | 16µM* | ? | 12%[56.1 µM] | 0%
Cc1ccc(N(CC(O)CN2CCCCC2)S(=O)(=O)c2ccc(C)cc2)cc1 (stereo unspecified) | 3% | -3% | -5% | nt | -6%
CC1(c2nnc(-c3cccc(Cl)c3)o2)CC(c2ccc(C#N)cc2)=NO1 (stereo unspecified) | ? | 18µM* | -3% | nt | nt
CC1(c2nnc(-c3cccc(Cl)c3)o2)CC(c2ccc(Cl)cc2)=NO1 (stereo unspecified) | -27% | -29% | 3% | nt | nt
